Earlier results on 1 substance are cited in patent publication US20220023323A1, “RESETTING BIOLOGICAL PATHWAYS FOR DEFENDING AGAINST AND REPAIRING DETERIORATION FROM HUMAN AGING” (priority 2015, published 2022).

The conditions of this data set: in vivo; cited from earlier work.

On to sodium sulfide [Na2S], for which the “time to increase of H2S concentration” value is “within seconds to minutes”.
